Laboratory results taken from ChEMBL document CHEMBL6127158, “Novel Aminopyrazole Inhibitors of PDE11A for the Treatment of Alzheimer's Disease and Other Types of Dementia” (ACS Med Chem Lett, 2024).
pIC50: −log10 of the molar value.

Sequences of proteins named here, by UniProt entry; tags and fusion partners are left off. A change or cut given only in a name is not applied to a line headed by its entry.
UniProt Q9HCR9: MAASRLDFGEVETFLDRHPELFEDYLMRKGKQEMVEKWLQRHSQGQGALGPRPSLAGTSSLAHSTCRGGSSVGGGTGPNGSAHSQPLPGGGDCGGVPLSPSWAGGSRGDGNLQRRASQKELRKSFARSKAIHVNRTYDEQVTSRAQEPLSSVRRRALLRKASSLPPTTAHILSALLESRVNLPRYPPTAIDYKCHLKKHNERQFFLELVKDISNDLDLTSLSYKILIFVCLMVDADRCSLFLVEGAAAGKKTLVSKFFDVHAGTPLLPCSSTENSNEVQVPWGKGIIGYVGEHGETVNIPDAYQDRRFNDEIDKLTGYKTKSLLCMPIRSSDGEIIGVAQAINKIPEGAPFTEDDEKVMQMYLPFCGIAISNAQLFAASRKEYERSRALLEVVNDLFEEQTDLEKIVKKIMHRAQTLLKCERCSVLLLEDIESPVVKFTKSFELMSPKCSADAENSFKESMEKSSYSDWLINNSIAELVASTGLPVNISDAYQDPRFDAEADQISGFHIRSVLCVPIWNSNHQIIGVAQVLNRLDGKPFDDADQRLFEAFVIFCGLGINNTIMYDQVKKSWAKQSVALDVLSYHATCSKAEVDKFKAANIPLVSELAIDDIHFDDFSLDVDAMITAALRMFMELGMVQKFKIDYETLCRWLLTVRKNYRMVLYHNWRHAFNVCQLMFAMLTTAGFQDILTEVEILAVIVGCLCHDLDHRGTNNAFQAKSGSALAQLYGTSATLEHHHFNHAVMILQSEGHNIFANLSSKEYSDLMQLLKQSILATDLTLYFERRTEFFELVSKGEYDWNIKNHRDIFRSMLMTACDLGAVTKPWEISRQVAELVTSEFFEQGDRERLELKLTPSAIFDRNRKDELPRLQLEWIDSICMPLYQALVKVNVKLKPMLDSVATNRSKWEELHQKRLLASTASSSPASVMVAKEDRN

Target: Dual 3',5'-cyclic-AMP and -GMP phosphodiesterase 11A (Homo sapiens, UniProt Q9HCR9)
Conditions: sf9

CCN(CC)C(=O)c1cc(-c2cccs2)nc2c1c(C)nn2-c1ccccc1
pIC50: 6.38
